Laboratory results: PMC12537693, “3-Hydroxytyrosol as a phenolic cholinesterase inhibitor with antiamnesic activity: a multimethodological study of selected plant phenolics” (Frontiers in Pharmacology, 2025)

By UniProt entry, the sequences of proteins in these tests, tags left out. Residues count along the entry.
UniProt O42275, 24-633 limits assumed: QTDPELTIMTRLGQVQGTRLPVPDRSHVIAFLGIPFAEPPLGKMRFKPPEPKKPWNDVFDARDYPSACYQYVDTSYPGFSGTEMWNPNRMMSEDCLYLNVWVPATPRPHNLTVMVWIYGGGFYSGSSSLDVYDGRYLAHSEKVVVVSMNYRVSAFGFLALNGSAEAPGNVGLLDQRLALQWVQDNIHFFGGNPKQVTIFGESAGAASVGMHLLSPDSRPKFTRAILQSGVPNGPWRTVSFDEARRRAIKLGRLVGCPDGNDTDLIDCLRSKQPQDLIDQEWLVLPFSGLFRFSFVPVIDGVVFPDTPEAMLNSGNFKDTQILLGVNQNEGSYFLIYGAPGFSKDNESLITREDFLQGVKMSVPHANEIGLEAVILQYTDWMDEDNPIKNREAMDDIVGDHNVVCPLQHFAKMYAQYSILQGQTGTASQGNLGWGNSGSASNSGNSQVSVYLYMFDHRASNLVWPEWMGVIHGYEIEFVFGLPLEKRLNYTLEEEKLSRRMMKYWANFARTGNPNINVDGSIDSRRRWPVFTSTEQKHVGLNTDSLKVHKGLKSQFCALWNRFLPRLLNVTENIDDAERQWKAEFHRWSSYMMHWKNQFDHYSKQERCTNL
UniProt P81908, whole entry, looked up: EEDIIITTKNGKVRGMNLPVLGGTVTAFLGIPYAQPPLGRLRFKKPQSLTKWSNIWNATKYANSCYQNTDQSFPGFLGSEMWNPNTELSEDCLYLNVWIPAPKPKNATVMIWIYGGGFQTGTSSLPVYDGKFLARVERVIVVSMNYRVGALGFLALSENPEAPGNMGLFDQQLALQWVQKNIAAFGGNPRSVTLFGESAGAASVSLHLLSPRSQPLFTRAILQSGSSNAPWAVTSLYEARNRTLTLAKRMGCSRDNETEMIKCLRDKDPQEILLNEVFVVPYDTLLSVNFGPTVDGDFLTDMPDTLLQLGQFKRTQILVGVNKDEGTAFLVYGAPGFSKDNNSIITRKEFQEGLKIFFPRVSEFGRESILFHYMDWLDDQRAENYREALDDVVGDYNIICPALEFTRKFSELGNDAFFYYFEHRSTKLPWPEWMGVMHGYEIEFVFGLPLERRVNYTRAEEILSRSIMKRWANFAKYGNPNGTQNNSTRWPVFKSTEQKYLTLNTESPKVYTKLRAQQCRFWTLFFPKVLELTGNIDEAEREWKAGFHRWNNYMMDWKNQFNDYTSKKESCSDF

What was measured:
electric eel AChE = electric eel AChE (Electrophorus electricus, UniProt O42275); experiment: Microtiter assay for AChE inhibition (Ellman's method); type: biochemical; details: for IC50: read-out: IC50, AChE, ± SD
horse serum BChE = horse serum BChE (Equus caballus, UniProt P81908); experiment: Microtiter assay for BChE inhibition (Ellman's method); type: biochemical; details: for IC50: read-out: IC50, BChE, ± SD
[1] = system: scopolamine-induced amnesic mice; experiment: Passive avoidance test in scopolamine-induced amnesic mice; type: in vivo; details: for Mean latency time (min) ± SEM (1st day): acquisition day, before treatment
BChE [2] = details: read-out: IC50, ChE (second value, taken as BChE); order of enzymes not stated; ref Okello and Mather, 2020; cited from earlier work
AChE [3] = details: read-out: IC50, ChE (first value, taken as AChE); order of enzymes not stated; ref Okello and Mather, 2020; cited from earlier work
AChE [4] = details: read-out: Ki, AChE; ref Gulcin et al., 2016; cited from earlier work
BChE [5] = details: rosmarinic acid isolated from Perovskia atriplicifolia Benth.; ref Senol et al., 2017; cited from earlier work
BChE [6] = details: read-out: Ki, BChE; ref Gulcin et al., 2016; cited from earlier work
[7] = 20 mg/kg i.p., scopolamine 1 mg/kg i.p. 30 min later, 24 h after scopolamine, cutoff 9 min
[8] = group given 20 mg/kg i.p., n = 8

O=c1cc(-c2ccc(O)c(O)c2)oc2c([C@@H]3O[C@H](CO)[C@@H](O)[C@H](O)[C@H]3O)c(O)cc(O)c12
Enzyme inhibition (% ± SD) at 10 mM, AChE (electric eel AChE; n = 3): — (No inhibition)
Enzyme inhibition (% ± SD) at 10 mM, BChE (horse serum BChE; n = 3): — (No inhibition)

O=c1cc(-c2ccc(O)c(O)c2)oc2cc(O)cc(O)c12 [Luteolin]
Enzyme inhibition (% ± SD) at 10 mM, AChE (electric eel AChE; n = 3): — (No inhibition)
Enzyme inhibition (% ± SD) at 10 mM, AChE (electric eel AChE; n = 3, listed as luteolin): no inhibition

O=c1cc(-c2ccc(O)cc2)oc2cc(O)cc(O)c12 [Apigenin]
Enzyme inhibition (% ± SD) at 10 mM, AChE (electric eel AChE; n = 3): 76.97 ± 1.50%
IC50 (electric eel AChE; n = 3): 3.52 mM

O=c1c(-c2ccc(O)cc2)coc2cc(O)ccc12
Enzyme inhibition (% ± SD) at 10 mM, BChE (horse serum BChE; n = 3): 19.62 ± 7.10%

COc1cc(-c2cc(=O)c3c(O)cc(O)cc3o2)cc(OC)c1O
Enzyme inhibition (% ± SD) at 10 mM, AChE (electric eel AChE; n = 3): — (No inhibition)
Enzyme inhibition (% ± SD) at 10 mM, BChE (horse serum BChE; n = 3): 10.48 ± 4.13%

3-Hydroxytyrosol
Enzyme inhibition (% ± SD) at 10 mM, AChE (electric eel AChE; n = 3): 62.40 ± 0.68%
IC50 (electric eel AChE; n = 3): 4.56 mM
Enzyme inhibition (% ± SD) at 10 mM, BChE (horse serum BChE; n = 3): 94.35 ± 2.40%
IC50 (horse serum BChE; n = 3): 6.96 mM
Mean latency time (min) ± SEM (2nd day) [1, 7]: 8.39 ± 0.31 min
Mean latency time (min) ± SEM (1st day) [1, 8]: 0.44 ± 0.03 min

O=c1c(O[C@@H]2O[C@H](CO)[C@@H](O)[C@H](O)[C@H]2O)c(-c2ccc(O)c(O)c2)oc2cc(O)cc(O)c12
Enzyme inhibition (% ± SD) at 10 mM, AChE (electric eel AChE; n = 3): 43.17 ± 1.65%
Enzyme inhibition (% ± SD) at 10 mM, BChE (horse serum BChE; n = 3): 31.77 ± 0.39%

COc1cc2c(=O)c(-c3ccc(O)cc3)coc2cc1O
Enzyme inhibition (% ± SD) at 10 mM, AChE (electric eel AChE; n = 3): — (No inhibition)
Enzyme inhibition (% ± SD) at 10 mM, BChE (horse serum BChE; n = 3): 29.77 ± 0.01%

Epigallocatechin gallate
IC50 (BChE [2]): 0.0251 mM
Enzyme inhibition (% ± SD) at 10 mM, AChE (electric eel AChE; n = 3): 69.11 ± 3.91%
IC50 (electric eel AChE; n = 3): 4.85 mM
Enzyme inhibition (% ± SD) at 10 mM, BChE (horse serum BChE; n = 3): 84.43 ± 0.86%
IC50 (horse serum BChE; n = 3): 5.04 mM
Mean latency time (min) ± SEM (2nd day) [1, 7]: 4.01 ± 0.77 ^c min
Mean latency time (min) ± SEM (1st day) [1, 8]: 0.38 ± 0.04 min
IC50 (AChE [3]): 0.0148 mM

CN1[C@@H]2C[C@@H](OC(=O)[C@H](CO)c3ccccc3)C[C@H]1[C@@H]1O[C@@H]12
Mean latency time (min) ± SEM (1st day) ([1]; control group given scopolamine 1 mg/kg only): 0.38 ± 0.04 min
Mean latency time (min) ± SEM (2nd day) ([1]; control: scopolamine 1 mg/kg i.p. alone, 24 h after): 0.91 ± 0.14 min

O=C(/C=C/c1ccc(O)c(O)c1)O[C@@H]1C[C@](O)(C(=O)O)C[C@@H](O)[C@H]1O [Chlorogenic acid]
Enzyme inhibition (% ± SD) at 10 mM, AChE (electric eel AChE; n = 3): 18.67 ± 1.76%

O=C1c2c(O)cc(O)cc2OC(c2ccc(O)c(O)c2)C1O (stereo not drawn)
Enzyme inhibition (% ± SD) at 10 mM, AChE (electric eel AChE; n = 3): 50.43 ± 1.12%
IC50 (electric eel AChE; n = 3): 7.18 mM
Enzyme inhibition (% ± SD) at 10 mM, BChE (horse serum BChE; n = 3): 14.36 ± 1.71%

D-(-)-quinic acid
Enzyme inhibition (% ± SD) at 10 mM, AChE (electric eel AChE; n = 3): 5.44 ± 4.01%
Enzyme inhibition (% ± SD) at 10 mM, BChE (horse serum BChE; n = 3): 5.84 ± 4.60%

COc1cc(C(=O)O)cc(OC)c1O
Enzyme inhibition (% ± SD) at 10 mM, AChE (electric eel AChE; n = 3): 2.39 ± 4.18%
Enzyme inhibition (% ± SD) at 10 mM, BChE (horse serum BChE; n = 3): 17.56 ± 4.24%

COc1cc(C(=O)O)ccc1O [Vanillic acid]
Enzyme inhibition (% ± SD) at 10 mM, AChE (electric eel AChE; n = 3): - ^b (No inhibition)

C[C@@H]1O[C@@H](O[C@H]2[C@H](Oc3cc(O)c4c(c3)O[C@H](c3ccc(O)cc3)CC4=O)O[C@H](CO)[C@@H](O)[C@@H]2O)[C@H](O)[C@H](O)[C@H]1O
Enzyme inhibition (% ± SD) at 10 mM, AChE (electric eel AChE; n = 3): 4.27 ± 4.28%
Enzyme inhibition (% ± SD) at 10 mM, BChE (horse serum BChE; n = 3): 14.94 ± 0.13%

Catechin
Enzyme inhibition (% ± SD) at 10 mM, AChE (electric eel AChE; n = 3): — (No inhibition)
Enzyme inhibition (% ± SD) at 10 mM, BChE (horse serum BChE; n = 3): — (No inhibition)

O=c1c(O)c(-c2ccc(O)c(O)c2)oc2cc(O)ccc12 [Fisetin]
Enzyme inhibition (% ± SD) at 10 mM, AChE (electric eel AChE; n = 3): 96.21 ± 0.06 (IC50: 1.28 ± 1.28 mM) %

COc1ccc([C@@H]2CC(=O)c3c(O)cc(O)cc3O2)cc1O
Enzyme inhibition (% ± SD) at 10 mM, AChE (electric eel AChE; n = 3): 19.19 ± 2.75%
Enzyme inhibition (% ± SD) at 10 mM, BChE (horse serum BChE; n = 3): 25.58 ± 3.92%

COc1ccc(-c2cc(=O)c3c(O)cc(O)cc3o2)cc1O
Enzyme inhibition (% ± SD) at 10 mM, AChE (electric eel AChE; n = 3): — (No inhibition)
Enzyme inhibition (% ± SD) at 10 mM, BChE (horse serum BChE; n = 3): 18.94 ± 2.07%

Trans-ferulic acid
Enzyme inhibition (% ± SD) at 10 mM, AChE (electric eel AChE; n = 3): 6.26 ± 2.55%
Enzyme inhibition (% ± SD) at 10 mM, BChE (horse serum BChE; n = 3): 14.91 ± 11.10%

O=C(/C=C/c1ccc(O)c(O)c1)O[C@H](Cc1ccc(O)c(O)c1)C(=O)O
Ki (AChE [4]): 0.0425 nM
Enzyme inhibition (% ± SD) at 10 mM, AChE (electric eel AChE; n = 3): 69.99 ± 1.84%
IC50 (electric eel AChE; n = 3): 3.08 mM
IC50, BChE (BChE [5]): 6.59 ± 0.37 µg/mL (≈ 18.3 µM)
Enzyme inhibition (% ± SD) at 10 mM, BChE (horse serum BChE; n = 3): 68.91 ± 4.51%
IC50 (horse serum BChE; n = 3): 6.14 mM
Mean latency time (min) ± SEM (2nd day) [1, 7]: 6.02 ± 1.16 min
Mean latency time (min) ± SEM (1st day) [1, 8]: 0.48 ± 0.11 min
Ki (BChE [6]): 0.122 nM

COc1ccc(-c2cc(=O)c3c(OC)c(OC)c(OC)c(OC)c3o2)cc1
Enzyme inhibition (% ± SD) at 10 mM, AChE (electric eel AChE; n = 3): — (No inhibition)
Enzyme inhibition (% ± SD) at 10 mM, BChE (horse serum BChE; n = 3): 9.97 ± 4.09%

O=c1c(O)c(-c2cc(O)c(O)c(O)c2)oc2cc(O)cc(O)c12
Enzyme inhibition (% ± SD) at 10 mM, AChE (electric eel AChE; n = 3): — (No inhibition)
Enzyme inhibition (% ± SD) at 10 mM, AChE (electric eel AChE; n = 3, listed as myricetin): no inhibition
Enzyme inhibition (% ± SD) at 10 mM, BChE (horse serum BChE; n = 3): — (No inhibition)
Enzyme inhibition (% ± SD) at 10 mM, BChE (horse serum BChE; n = 3, listed as myricetin): no inhibition

Oc1ccc(/C=C/c2cc(O)cc(O)c2)cc1
Enzyme inhibition (% ± SD) at 10 mM, AChE (electric eel AChE; n = 3): 54.02 ± 3.59%
IC50 (electric eel AChE; n = 3): 5.19 mM
IC50 (horse serum BChE; n = 3): 9.87 mM

C/C=C1/[C@H](O[C@@H]2O[C@H](CO)[C@@H](O)[C@H](O)[C@H]2O)OC=C(C(=O)OC)[C@H]1CC(=O)OCCc1ccc(O)c(O)c1
Enzyme inhibition (% ± SD) at 10 mM, AChE (electric eel AChE; n = 3): 84.10 ± 3.11%
IC50 (electric eel AChE; n = 3): 5.39 mM
Enzyme inhibition (% ± SD) at 10 mM, BChE (horse serum BChE; n = 3): 90.54 ± 2.51%
IC50 (horse serum BChE; n = 3): 6.48 mM
Mean latency time (min) ± SEM (2nd day) [1, 7]: 7.68 ± 0.55 min
Mean latency time (min) ± SEM (1st day) [1, 8]: 0.39 ± 0.07 min

O=C(O)/C=C/c1ccc(O)c(O)c1
Enzyme inhibition (% ± SD) at 10 mM, BChE (horse serum BChE; n = 3): 47.82 ± 2.75%

p-Tyrosol
Enzyme inhibition (% ± SD) at 10 mM, AChE (electric eel AChE; n = 3): — (No inhibition)
Enzyme inhibition (% ± SD) at 10 mM, BChE (horse serum BChE; n = 3): 35.58 ± 3.54%

O=c1c(O)c(-c2ccc(O)cc2O)oc2cc(O)cc(O)c12
Enzyme inhibition (% ± SD) at 10 mM, AChE (electric eel AChE; n = 3): 9.72 ± 0.96%
Enzyme inhibition (% ± SD) at 10 mM, BChE (horse serum BChE; n = 3): 2.81 ± 3.83%

O=c1c(O)c(-c2ccc(O)cc2)oc2cc(O)cc(O)c12 [Kaempferol]
Enzyme inhibition (% ± SD) at 10 mM, AChE (electric eel AChE; n = 3): 30.91 ± 1.83%

O=c1c(O)c(-c2ccc(O)c(O)c2)oc2cc(O)cc(O)c12 [Quercetin]
IC50 (horse serum BChE; n = 3): 2.51 mM

Oc1ccc(-c2[o+]c3cc(O)cc(O)c3cc2O)cc1 [Pelargonidin]
Enzyme inhibition (% ± SD) at 10 mM, AChE (electric eel AChE; n = 3): 34.25 ± 0.50%

O=C(O)c1cc(O)c(O)c(O)c1 [Gallic acid]
IC50 (electric eel AChE; n = 3): 4.22 mM
IC50 (horse serum BChE; n = 3): 3.29 mM

COc1ccc2c3c1O[C@H]1C[C@@H](O)C=C[C@@]31CCN(C)C2
Mean latency time (min) ± SEM (2nd day) ([1]; 10 mg/kg s.c., scopolamine 1 mg/kg i.p. 30 min later, 24 h after scopolamine, cutoff 9 min): 6.42 ± 1.06 min
Mean latency time (min) ± SEM (1st day) ([1]; group given 10 mg/kg s.c., n = 8): 0.35 ± 0.08 min

O=c1cc(-c2ccc(O)cc2)oc2c([C@@H]3O[C@H](CO)[C@@H](O)[C@H](O)[C@H]3O)c(O)cc(O)c12
Enzyme inhibition (% ± SD) at 10 mM, AChE (electric eel AChE; n = 3): 17.32 ± 2.77%

O=c1oc2c(O)c(O)cc3c(=O)oc4c(O)c(O)cc1c4c23 [Ellagic acid]
Enzyme inhibition (% ± SD) at 10 mM, AChE (electric eel AChE; n = 3): — (No inhibition)
Enzyme inhibition (% ± SD) at 10 mM, AChE (electric eel AChE; n = 3, listed as ellagic acid): no inhibition

O=C(O)C=Cc1ccc(O)cc1
Enzyme inhibition (% ± SD) at 10 mM, AChE (electric eel AChE; n = 3): — (No inhibition)
Enzyme inhibition (% ± SD) at 10 mM, BChE (horse serum BChE; n = 3): 5.15 ± 3.96%

In brackets after ≈: the same amount, converted by molar mass. Marks after values point to notes of the source that are not given here.
